The species named for the experiment is Rattus norvegicus. Put plainly: Rattus norvegicus (rat)io of Ki for low affinity antagonist binding site of D2 receptor to high affinity agonist binding site of D2 receptor in Rattus norvegicus (rat) striatal membrane. As to conditions: Striatum.

Each structure is given as a SMILES string.

As for `Oc1nc2c(N3CCN(Cc4ccccc4)CC3)cccc2[nH]1`, the Ratio Ki amounted to 11.

Values taken from ChEMBL document CHEMBL3046886, “Action of benzimidazolo-piperazinyl derivatives on dopamine receptors” (Med Chem Res, 2013).
